Data taken from patent publication EP0471298B1, “Carbamoyl-1-(pyridinylalkyl)-1H-indoles, indolines and related analogs” (priority 1990, dated 1992).

By UniProt entry, the sequences of proteins in these tests, tags left out. Where a name states a change or a piece, a line headed by the entry shows the natural chain unless it says otherwise.
UniProt P37136: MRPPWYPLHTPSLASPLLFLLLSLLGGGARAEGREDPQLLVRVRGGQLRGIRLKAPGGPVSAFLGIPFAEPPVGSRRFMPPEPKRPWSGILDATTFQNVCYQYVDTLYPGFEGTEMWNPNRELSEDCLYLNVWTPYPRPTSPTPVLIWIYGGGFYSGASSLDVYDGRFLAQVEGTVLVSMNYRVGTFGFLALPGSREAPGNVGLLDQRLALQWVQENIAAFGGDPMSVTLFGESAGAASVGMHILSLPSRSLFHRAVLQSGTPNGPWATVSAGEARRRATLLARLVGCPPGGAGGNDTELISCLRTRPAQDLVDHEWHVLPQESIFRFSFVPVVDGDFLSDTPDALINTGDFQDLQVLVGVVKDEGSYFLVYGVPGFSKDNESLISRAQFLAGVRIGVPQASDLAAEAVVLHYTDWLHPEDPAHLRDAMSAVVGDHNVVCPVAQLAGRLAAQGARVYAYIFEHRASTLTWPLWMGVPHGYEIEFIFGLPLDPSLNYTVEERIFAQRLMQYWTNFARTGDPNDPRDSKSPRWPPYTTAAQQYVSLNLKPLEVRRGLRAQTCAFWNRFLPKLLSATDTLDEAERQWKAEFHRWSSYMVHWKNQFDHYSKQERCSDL

Target: Acetylcholinesterase (AChE) (Rattus norvegicus, UniProt P37136)
Test: In vitro inhibition of acetylcholinesterase activity in rat striatum (modified Ellman method)
Type: biochemical
Details: read-out: Inhibitory Concentration IC₅₀; Brain acetylcholinesterase, rat striatum homogenate; preincubated 10 minutes at 37°C; acetylthiocholine 5 mM final; pH 7.2
Source text: Cholinesterases are found throughout the body, both in the brain and in serum. However, only brain acetylcholinesterease (AChE) distribution is correlated with central cholinergic innervation. […] We have determined in vitro inhibition of acetylcholinesterase activity in rat striatum according to the method described below.
In Vitro Inhibition of Acetylcholinesterase Activity in Rat Striatum
The method described below was used in this invention for assaying anticholinesterase activity. This is a modification of the method of Ellman et al., Biochem. Pharmacol. 7, 88 (1961).
• A. Reagents - • 1. 0.05 M Phosphate buffer, pH 7.2 • (a) 6.85 g NaH₂PO₄·H₂O/100 mi distilled H₂O • (b) 13.40 g Na₂HPO₄·7H₂O/100 ml distilled H₂O • (c) add (a) to (b) until pH reaches 7.2 • (d) Dilute 1:10 • 2. […] If active, IC₅₀ values are determined from the inhibitory activity of subsequent concentrations. • B. Tissue Preparation - Male Wistar rats are decapitated, brains rapidly removed, corpora striata dissected free, weighed and homogenized in 19 volumes (approximately 7 mg protein/ml) of 0.05 M phosphate buffer, pH 7.2, using a Potter-Elvehjem homogenizer. […] Assay Enzyme activity is measured with the Beckman DU-50 spectrophotometer. […] This program also calculates the rate of absorbance change for each cuvette. […]

Physostigmine gave an IC50 of 6 nM.
